How the values were obtained:
[1] = organism: Homo sapiens; test: Selectivity ratio of IC50 for human Fc-conjugated TNF-R/FLAG-tagged biotinylated TNFalpha protein-protein interaction to IC50 for human Fc-conjugated CD40/FLAG-tagged biotinylated CD40L costimulatory protein-protein interaction
Procedure, shortened: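 Cell-free plate binding: TNF-R-Fc and CD40-Fc each coated at 0.3 µg/mL. FLAG-tagged TNF-α or CD40L, each at 0.02 µg/mL, added with graded compound for 1 h in HEPES buffer, pH 7.2. Anti-FLAG HRP/TMB detection at 450 nm. IC50s come from log inhibitor fits.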

The chains behind the UniProt entries cited, without tags or fusion partners. Where a name states a change or a piece, a line headed by the entry shows the natural chain unless it says otherwise.
UniProt P25942, whole entry, looked up: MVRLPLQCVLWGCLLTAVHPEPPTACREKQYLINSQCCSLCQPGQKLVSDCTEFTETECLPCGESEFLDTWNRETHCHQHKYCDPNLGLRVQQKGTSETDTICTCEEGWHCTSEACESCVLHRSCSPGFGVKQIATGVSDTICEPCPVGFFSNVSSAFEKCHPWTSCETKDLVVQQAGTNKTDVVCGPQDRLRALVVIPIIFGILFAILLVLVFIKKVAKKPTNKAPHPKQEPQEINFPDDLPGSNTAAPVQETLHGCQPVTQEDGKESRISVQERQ
UniProt P29965: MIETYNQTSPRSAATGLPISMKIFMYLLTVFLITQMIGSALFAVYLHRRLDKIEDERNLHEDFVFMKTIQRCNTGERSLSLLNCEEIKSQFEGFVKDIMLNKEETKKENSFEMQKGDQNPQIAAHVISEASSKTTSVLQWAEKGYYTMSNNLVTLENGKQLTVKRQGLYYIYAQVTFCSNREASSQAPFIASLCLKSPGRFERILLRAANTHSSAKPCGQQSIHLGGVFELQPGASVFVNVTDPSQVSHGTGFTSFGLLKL

[2] = molecular target: CD40-CD40L (Homo sapiens, UniProt P25942+P29965); test: Ratio of IC50 for human Fc-conjugated CD40/FLAG-tagged biotinylated CD40L costimulatory protein-protein interaction in presence of Triton-X 100 to IC50 for human Fc-conjugated CD40/FLAG-tagged biotinylated CD40L costimulatory protein-protein interaction in absence of Triton-X 100; assay type: protein assay
Procedure, shortened: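 CD40-Fc (0.3 µg/mL) coated, FLAG-CD40L (0.02 µg/mL) binding, 1 h, anti-FLAG HRP/TMB read at 450 nm. Run with and without the non-ionic detergent Triton X-100 at 0.01% to test for colloidal aggregation. IC50 taken from log inhibitor vs. response fits in each condition.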

Row | Compound | Ratio IC50 [1] | Ratio IC50 [2]
1 | O=C(Nc1ccc(-c2ccc(C(=O)Nc3ccc(C(=O)O)c4ccccc34)cc2)cc1)c1ccc([N+](=O)[O-])cc1 | > 100 | 1.9
2 | O=C(Nc1ccc(-c2ccc(C(=O)Nc3cccc4cccc(S(=O)(=O)O)c34)cc2)cc1)c1ccc([N+](=O)[O-])cc1 | > 100 | 8
3 | COC(=O)c1ccc(C(=O)Nc2ccc(-c3ccc(C(=O)Nc4cccc5cccc(S(=O)(=O)O)c45)cc3)cc2)cc1 | > 100 | 1.2

From ChEMBL document CHEMBL4017546, “Small-Molecule Inhibitors of the CD40-CD40L Costimulatory Protein-Protein Interaction” (J Med Chem, 2017)
